Data from US10864279B2, “Linker-drug and antibody-drug conjugate (ADC) employing the same” (priority 2016, dated 2020).

Experiments:
[1] = system: HER2-negative cell lines MDA-MB-468; test: Potency test, CCK-8 cell viability, MDA-MB-468; type: cell-based; conditions: for toxicity in MDA-MB-468 compared with commercial Kadcyla: HER2-negative cells, in words; for IC50: HER2 expression negative, 72-120 hours, Table 4
Description: (§1) Cells were seeded in Corning CellBIND 96-well plates at densities of 6×10^3 cells/well. After incubation overnight at 37° C., 5% CO2 incubator, different concentrations of ADCs were added to the cells in serial dilutions. The cells were then incubated for 72-120 hours at 37° C., 5% CO2 incubator. After 72-120 hours, the old medium was removed and the cells were rinsed once and treated with 10-fold diluted CCK-8 reagent at 37° C. for 4 hours. The 96-well plates were put in the ELISA reader to measure the absorbance wavelength at 450 nm. Cell viability was calculated by the following equation: Cell Viability (%)=(Intensity of sample/Intensity of control)×100%. IC50 values of the ADC samples were calculated using SigmaPlot software.

[2] = system: breast cancer cell lines BT-474 (subcutaneous xenograft); test: Tumor growth inhibition test: BT-474 xenograft model; type: in vivo, NODSCID mice; conditions: in words
Description: The length and width of the tumor were measured and the tumor size was calculated by (length×width×width×½) (mm^3) and recorded.

[3] = system: HER2 high-expressing breast cancer cell lines BT-474; test: Potency test, CCK-8 cell viability, BT-474; type: cell-based; conditions: HER2 expression 3+; 72-120 hours; Table 3
Description: as §1

[4] = Body weight and clinical symptoms, EC PDX model; type: in vivo, NODSCID mice; conditions: in words
Description: (§2) Endometrial cancer tumor tissue obtained from National Taiwan University was confirmed to be HER2-positive (+1). Tumor (2-3 mm diameter) was subcutaneous implanted to NODSCID mice to test the drug efficacy of ADCs in vivo. When the average tumor size was about 100 mm^3, mice were divided into groups and ADCs were intravenously injected (10 mL/kg B.W. injection volume).

[5] = system: HER2 moderate-expressing breast cancer cell lines JIMT-1 with anti-Herceptin drug resistance; test: Potency test, CCK-8 cell viability, JIMT-1; type: cell-based
Description: as §1

[6] = system: Endometrial cancer tumor tissue, HER2-positive (+1); test: Tumor growth inhibition test: EC PDX model; type: in vivo, NODSCID mice; conditions: in words
Description: as §2

With Herceptin-Linker-drug 14 the “toxicity in MDA-MB-468 compared with commercial Kadcyla” value [1] was “significantly lower than that of commercial Kadcyla” and the IC50 [1] was 154 nM.
With Herceptin-Linker-drug 8 the “tumor growth after 60 days of treatment” value ([2]; 2.5 mg/kg) was “significantly inhibited” and the “tumor growth after 60 days of treatment” value ([2]; 5 mg/kg) was “significantly inhibited”.
In the case of Herceptin-Linker-drug 3, the “toxicity in MDA-MB-468 compared with commercial Kadcyla” value [1] is reported as “significantly lower than that of commercial Kadcyla” and the IC50 [3] is reported as 0.35 nM.
In the case of Herceptin-Linker-drug 11, the “recovery of abnormal clinical symptoms” value ([4]; 5 mg/kg) is reported as “recovered after one week”, the “recovery of abnormal clinical symptoms” value ([4]; 10 mg/kg) is reported as “recovered after one week” and the IC50 [3] is reported as 0.28 nM. The “cell toxicity in JIMT-1 compared with other ADCs” value ([5]; FIG. 18C, in words) was “superior to the cell toxicity of other ADCs”, the “tumor growth after 12 days of treatment” value ([6]; 5 mg/kg) was “significantly inhibited” and the “tumor growth after 12 days of treatment” value ([6]; 10 mg/kg) was “significantly inhibited”.
With Herceptin-Linker-drug 2 the IC50 ([5]; HER2 expression 2+ resistant, 72-120 hours, Table 3) was ~500 nM.
With Herceptin-Linker-drug 16 the “toxicity in MDA-MB-468 compared with commercial Kadcyla” value [1] was “significantly lower than that of commercial Kadcyla” and the IC50 [1] was 38.7 nM.
